Patent US20030135023A1, “Peptide structures useful for competitive modulation of dipeptidyl peptidase IV catalysis” (priority 2001, published 2003)

Chains of the proteins cited; added tags and fusions are not shown. Lines headed by an entry give the natural chain unless they say otherwise; changes in a name come on top. Residues count along the entry.
UniProt P22411: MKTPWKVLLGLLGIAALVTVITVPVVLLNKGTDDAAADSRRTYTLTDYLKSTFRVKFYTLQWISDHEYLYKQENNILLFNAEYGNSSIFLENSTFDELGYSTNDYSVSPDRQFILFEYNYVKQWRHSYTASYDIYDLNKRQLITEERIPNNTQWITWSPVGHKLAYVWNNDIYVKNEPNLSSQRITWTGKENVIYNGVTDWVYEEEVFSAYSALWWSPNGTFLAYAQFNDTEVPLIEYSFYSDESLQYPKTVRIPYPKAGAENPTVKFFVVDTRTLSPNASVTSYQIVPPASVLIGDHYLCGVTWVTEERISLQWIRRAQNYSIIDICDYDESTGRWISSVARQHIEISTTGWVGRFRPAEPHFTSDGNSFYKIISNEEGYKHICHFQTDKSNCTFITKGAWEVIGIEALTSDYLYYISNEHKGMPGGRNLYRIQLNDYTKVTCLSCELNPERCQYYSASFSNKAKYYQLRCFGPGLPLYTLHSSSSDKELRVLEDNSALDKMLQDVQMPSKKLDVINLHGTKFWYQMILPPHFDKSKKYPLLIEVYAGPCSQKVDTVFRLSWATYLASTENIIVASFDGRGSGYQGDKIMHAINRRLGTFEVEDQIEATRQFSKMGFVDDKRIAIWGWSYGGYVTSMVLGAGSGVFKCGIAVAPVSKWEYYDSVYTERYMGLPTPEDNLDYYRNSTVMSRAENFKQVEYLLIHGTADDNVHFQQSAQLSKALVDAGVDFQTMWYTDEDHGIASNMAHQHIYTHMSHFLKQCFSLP
UniProt P14740, 37-767 limits assumed: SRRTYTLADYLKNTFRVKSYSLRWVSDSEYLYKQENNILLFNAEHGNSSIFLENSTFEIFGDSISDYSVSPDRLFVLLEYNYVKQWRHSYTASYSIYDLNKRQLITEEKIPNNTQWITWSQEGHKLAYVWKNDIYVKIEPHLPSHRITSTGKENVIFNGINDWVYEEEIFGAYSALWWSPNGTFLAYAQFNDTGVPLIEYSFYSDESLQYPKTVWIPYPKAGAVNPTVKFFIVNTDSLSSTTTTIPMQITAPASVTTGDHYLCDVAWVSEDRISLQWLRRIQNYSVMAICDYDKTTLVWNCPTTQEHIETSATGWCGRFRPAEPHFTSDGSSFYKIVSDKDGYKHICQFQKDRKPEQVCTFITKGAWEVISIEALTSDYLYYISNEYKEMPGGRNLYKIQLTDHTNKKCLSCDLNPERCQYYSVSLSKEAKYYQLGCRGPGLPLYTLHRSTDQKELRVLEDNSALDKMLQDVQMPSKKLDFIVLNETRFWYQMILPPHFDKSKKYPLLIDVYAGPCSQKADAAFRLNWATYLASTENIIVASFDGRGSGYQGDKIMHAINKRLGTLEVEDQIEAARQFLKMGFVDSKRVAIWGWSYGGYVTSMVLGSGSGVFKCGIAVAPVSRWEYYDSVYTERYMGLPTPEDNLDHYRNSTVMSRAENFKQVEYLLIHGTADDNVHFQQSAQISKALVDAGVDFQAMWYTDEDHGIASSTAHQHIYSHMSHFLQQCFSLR

What was measured:
purified porcine DP IV [1] = target: T1, purified porcine DP IV (Sus scrofa, UniProt P22411); experiment: Determination of IC50-values, Gly-Pro-pNA cleavage by DP IV; type: biochemical; details: Gly-Pro-pNA 0.4 mM, HEPES pH 7.6, 30° C.
Experimental: (§1) 100 μl inhibitor stock solution were mixed with 100 μl buffer (HEPES pH 7.6) and 50 μl substrate (Gly-Pro-pNA, final concentration 0.4 mM) and preincubated at 30° C. Reaction was started by addition of 20 μl purified porcine DP IV. Formation of the product pNA was measured at 405 nm over 10 min using the HTS 7000 Plus plate reader (Perkin Elmer) and slopes were calculated. The final inhibitor concentrations ranged between 1 mM and 30 nM.
For calculation of IC50-values GraFit 4.0.13 (Erithacus Software) was used.

purified porcine DP IV [2] = target: T1, purified porcine DP IV; experiment: Determination of Ki-values, Gly-Pro-pNA cleavage by DP IV; type: biochemical; details: Gly-Pro-pNA 0.05-0.4 mM
Experimental: as §1
Calculations were performed using the GraFit Software.

plasma DP IV = target: T2, plasma DP IV (Rattus norvegicus, UniProt P14740); experiment: Plasma DP IV activity after intravasal and oral administration in Wistar rats; type: in vivo
T2 construct: The assay mixture consisted of 80 μl reagent and 20 μl plasma; from tissue; host or cells: plasma of Wistar rats
Experimental: Rats with intact catheter function were given the test substances intravasal (intraarterial) or oral, respectively, in random order (N=3 Wistar rats in each group). As positive control, […]. isoleucine thiazolidine*fumarate were administered intravasal.
After overnight fasting, 100 μl samples of heparinized arterial blood were collected at −30, −5, and 0 min into ice-cooled Eppendorf tubes (see below). The test substances were dissolved freshly in 1.0 ml saline (0.154 mol/l) and were given at 0 min either oral via a feeding tube ([…], 75 mm; Fine Science Tools, Heidelberg, Germany) or intravasal. For the intravasal route, the catheter was immediately flushed with 30 μl saline and an additional 1 ml of saline was given orally via the feeding tube.
Arterial blood samples were taken thereafter at 5, 10 (only in a limited number of experiments), 20, 40, 60 and 120 min from the carotid catheter of the conscious unrestrained rats and were always given into ice cooled Eppendorf tubes (Eppendorf-Netheler-Hinz, Hamburg, Germany) filled with 10 μl 1 M citrate buffer pH 3.0 for prevention of further hydrolysis of tripeptides by plasma DP IV activity. Eppendorf tubes were centrifuged immediately (12000 rpm for 2 min, Hettich Zentrifuge EBA 12, Tuttlingen; Germany): The plasma fractions were store on ice until analysis or were deeply frozen at −20 ° C. until analysis.
Plasma DP IV activity: The assay mixture consisted of 80 μl reagent and 20 μl plasma. Kinetic measurements of the formation of the yellow product 4-nitroaniline were performed at 390 nm for 1 min at 30° C. after 2 min pre-incubation at the same temperature. The activity was expressed as arbitrary units [AU] and DP IV activity [mU/ml].
The absolute values of plasma DP IV activity, the relative change of plasma DP IV activity and the time and extent of maximal inhibition were calculated. Data presentation included the presentation of area under the curve (AUC), which was used for evaluation of extent of inhibition of plasma DP IV activity during the two hours of observation. AUC was calculated using the trapezoidal rule.
To compare relative changes of parameters under the conditions of different initial values of DP IV activity an uniform standardised mean (values) was set up at the beginning of the test (see Figures and Tables).
Statistical evaluations were performed with Microsoft Excel® 97. All variables are presented as mean and standard deviation (SD). Treatment groups were compared by Student's t-test, within-group changes by paired t-test. Two-tailed values of p<0.05 were considered significant.

[3] = intravasal 10 mg/kg, individual animals

## CC[C@H](C)[C@H](N)C(=O)N1CCC[C@H]1C(=O)N[C@H](C(=O)O)[C@@H](C)CC [Diprotin A, Ile-Pro-Ile]
Purified porcine DP IV [1]
  pIC50: 5.33
Purified porcine DP IV [2]
  pKi: 5.46
Plasma DP IV; Wistar rats, p.o., 100 mg/kg
  DPIV inhibition at tmax, p.o.: no inhibition
Plasma DP IV; intravasal 10 mg/kg, 5 min, Mean
  Plasma DP IV activity: 22.4 mU/ml
Plasma DP IV; intravasal 10 mg/kg, 5 min, Standard. Mean
  Plasma DP IV activity: 23.3 mU/ml
Plasma DP IV; intravasal 10 mg/kg, 5 min, individual animals
  Plasma DP IV activity: 23.6 mU/ml and 23.2 mU/ml and 20.2 mU/ml
Plasma DP IV; intravasal 10 mg/kg, 20 min, Mean
  Plasma DP IV activity: 24.0 mU/ml
Plasma DP IV; intravasal 10 mg/kg, 20 min, Standard. Mean
  Plasma DP IV activity: 24.9 mU/ml
Plasma DP IV; intravasal 10 mg/kg, 20 min, individual animals
  Plasma DP IV activity: 24.2 mU/ml and 27.2 mU/ml and 20.6 mU/ml
Plasma DP IV; intravasal 10 mg/kg, 40 min, Mean
  Plasma DP IV activity: 23.5 mU/ml
Plasma DP IV; intravasal 10 mg/kg, 40 min, Standard. Mean
  Plasma DP IV activity: 24.4 mU/ml
Plasma DP IV; intravasal 10 mg/kg, 40 min, individual animals
  Plasma DP IV activity: 24.3 mU/ml and 25.4 mU/ml and 20.6 mU/ml
Plasma DP IV; intravasal 10 mg/kg, 60 min, Mean
  Plasma DP IV activity: 24.0 mU/ml
Plasma DP IV; intravasal 10 mg/kg, 60 min, Standard. Mean
  Plasma DP IV activity: 25.0 mU/ml
Plasma DP IV; intravasal 10 mg/kg, 60 min, individual animals
  Plasma DP IV activity: 24.3 mU/ml and 28.5 mU/ml and 19.3 mU/ml
Plasma DP IV; intravasal 10 mg/kg, 120 min, Mean
  Plasma DP IV activity: 22.0 mU/ml
Plasma DP IV; intravasal 10 mg/kg, 120 min, Standard. Mean
  Plasma DP IV activity: 22.9 mU/ml
Plasma DP IV; intravasal 10 mg/kg, 120 min, individual animals
  Plasma DP IV activity: 24.8 mU/ml and 23.2 mU/ml and 18.0 mU/ml
Plasma DP IV; intravasal 10 mg/kg, Mean
  DP IV AUC 0-20: −17.5 mU · min/ml
  DP IV AUC 0-120: −93.2 mU · min/ml
  Drop of plasma DP IV activity: 1.7 mU/ml
Plasma DP IV; intravasal 10 mg/kg, Standard. Mean
  Plasma DP IV activity Minimum: 22.9 mU/ml
Plasma DP IV; [3]
  DP IV AUC 0-20: −33.7 mU · min/ml and −16.4 mU · min/ml and −2.4 mU · min/ml
  DP IV AUC 0-120: −171.4 mU · min/ml and 14.3 mU · min/ml and −122.5 mU · min/ml
  Drop of plasma DP IV activity: 2.1 mU/ml and 2.6 mU/ml and 0.3 mU/ml
  Plasma DP IV activity Minimum: 23.6 mU/ml and 23.2 mU/ml and 20.2 mU/ml
  Time of Minimum: 5
Plasma DP IV; intravasal 30 mg/kg, 5 min, Mean
  Plasma DP IV activity: 16.8 mU/ml
Plasma DP IV; intravasal 30 mg/kg, 5 min, Standard. Mean
  Plasma DP IV activity: 17.3 mU/ml
Plasma DP IV; intravasal 30 mg/kg, 5 min, individual animals
  Plasma DP IV activity: 25.0 mU/ml and 15.4 mU/ml and 10.1 mU/ml
Plasma DP IV; intravasal 30 mg/kg, 20 min, Mean
  Plasma DP IV activity: 25.6 mU/ml
Plasma DP IV; intravasal 30 mg/kg, 20 min, Standard. Mean
  Plasma DP IV activity: 26.0 mU/ml
Plasma DP IV; intravasal 30 mg/kg, 20 min, individual animals
  Plasma DP IV activity: 32.9 mU/ml and 28.5 mU/ml and 15.4 mU/ml
Plasma DP IV; intravasal 30 mg/kg, 40 min, Mean
  Plasma DP IV activity: 22.1 mU/ml
Plasma DP IV; intravasal 30 mg/kg, 40 min, Standard. Mean
  Plasma DP IV activity: 22.5 mU/ml
Plasma DP IV; intravasal 30 mg/kg, 40 min, individual animals
  Plasma DP IV activity: 25.4 mU/ml and 25.0 mU/ml and 15.8 mU/ml
Plasma DP IV; intravasal 30 mg/kg, 60 min, Mean
  Plasma DP IV activity: 24.0 mU/ml
Plasma DP IV; intravasal 30 mg/kg, 60 min, Standard. Mean
  Plasma DP IV activity: 24.4 mU/ml
Plasma DP IV; intravasal 30 mg/kg, 60 min, individual animals
  Plasma DP IV activity: 31.1 mU/ml and 28.1 mU/ml and 12.7 mU/ml
Plasma DP IV; intravasal 30 mg/kg, 120 min, Mean
  Plasma DP IV activity: 24.7 mU/ml
Plasma DP IV; intravasal 30 mg/kg, 120 min, Standard. Mean
  Plasma DP IV activity: 25.1 mU/ml
Plasma DP IV; intravasal 30 mg/kg, 120 min, individual animals
  Plasma DP IV activity: 34.2 mU/ml and 25.0 mU/ml and 14.9 mU/ml

pIC50, pKi: −log10 of the molar value. Several values for one entry are separate records, joined by “and”; a condition that tells them apart may be missing. Equal entries are not always repeated.
